Test results reported in US20230338337A1, “BIOMARKERS FOR CANCER THERAPY USING MDM2 ANTAGONISTS” (OTSUKA PHARMACEUTICAL CO., LTD., priority 2019, published 2023).

Each substance was assayed on SJSA-1 (assay: Protocol B: CellTiter-Glo cell viability assay). Settings: read-out: SJSA1 IC50 (μM) (Protocol B); Protocol B.

Row | IC50 | Substance
1 | 1.1 µM | (3R)-3-(4-chlorophenyl)-2-[(5-chloropyrimidin-2-yl)methyl]-4-fluoro-6-[2-hydroxy-1-(piperazin-1-yl)butan-2-yl]-3-[(3S)-oxolan-3-yloxy]-2,3-dihydro-1H-isoindol-1-one [Example 524]
2 | 0.25 µM | (3R)-3-(4-chlorophenyl)-2-[(5-chloropyrimidin-2-yl)methyl]-4-fluoro-6-[1-hydroxy-1-(1-methylpiperidin-4-yl)ethyl]-3-[(3S)-oxolan-3-yloxy]-2,3-dihydro-1H-isoindol-1-one [Example 423]
3 | 2.2 µM | (3R)-3-(4-chlorophenyl)-2-[(5-chloropyridin-2-yl)methyl]-4-fluoro-6-[1-hydroxy-1-(1-methyl-1H-pyrazol-4-yl)ethyl]-3-[(2R)-2-hydroxypropoxy]-2,3-dihydro-1H-isoindol-1-one [Example 221]
4 | 0.32 µM | (3R)-3-(4-chlorophenyl)-2-[(5-chloropyrimidin-2-yl)methyl]-6-[1-(dimethylamino)-2-hydroxybutan-2-yl]-4-fluoro-3-[(3S)-oxolan-3-yloxy]-2,3-dihydro-1H-isoindol-1-one [Example 528]
5 | 0.45 µM | (3R)-3-(4-chlorophenyl)-2-[(5-chloropyrimidin-2-yl)methyl]-4-fluoro-6-[1-(4-fluorooxan-4-yl)-1-hydroxyethyl]-3-[(1-hydroxycyclopropyl)methoxy]-2,3-dihydro-1H-isoindol-1-one [Example 385]
6 | 2.3 µM | (3R)-3-(4-chlorophenyl)-4-fluoro-2-[(5-fluoropyridin-2-yl)methyl]-6-[1-hydroxy-1-(1-methyl-1H-pyrazol-4-yl)ethyl]-3-[(1-hydroxycyclopropyl)methoxy]-2,3-dihydro-1H-isoindol-1-one [Example 232]
7 | 0.33 µM | (3R)-3-(4-chlorophenyl)-4-fluoro-2-[(5-fluoropyridin-2-yl)methyl]-6-[1-hydroxy-1-(1-methyl-1H-pyrazol-4-yl)ethyl]-3-[(1-hydroxycyclopropyl)methoxy]-2,3-dihydro-1H-isoindol-1-one [Example 231]

The remaining lines, values behind:

Row | Substance | IC50
8 | (3R)-3-(4-chlorophenyl)-2-[(5-chloropyridin-2-yl)methyl]-4-fluoro-6-[1-hydroxy-1-(1-methyl-1H-pyrazol-4-yl)ethyl]-3-[trans-3-hydroxycyclobutoxy]-2,3-dihydro-1H-isoindol-1-one [Example 207] | 2.2 µM
9 | (3R)-3-(4-chlorophenyl)-2-[(5-chloropyridin-2-yl)methyl]-4-fluoro-6-[1-hydroxy-1-(1-methyl-1H-pyrazol-4-yl)ethyl]-3-[cis-3-hydroxycyclobutoxy]-2,3-dihydro-1H-isoindol-1-one [Example 208] | 2.3 µM
10 | 6-{[(1R)-1-(4-chlorophenyl)-7-fluoro-5-[1-hydroxy-1-(1-methyl-1H-pyrazol-4-yl)ethyl]-1-[(1-hydroxycyclopropyl)methoxy]-3-oxo-2,3-dihydro-1H-isoindol-2-yl]methyl}pyridine-3-carbonitrile [Example 341] | 0.5 µM
11 | (3R)-3-(4-chlorophenyl)-2-[(5-chloropyridin-2-yl)methyl]-4-fluoro-6-[1-hydroxy-1-(1-methanesulfonylpiperidin-4-yl)ethyl]-3-methoxy-2,3-dihydro-1H-isoindol-1-one [Example 294] | 0.077 µM
12 | (3R)-3-(4-chlorophenyl)-2-[(1S)-1-(4-chlorophenyl)ethyl]-3-{[(3R,4S)-4-hydroxyoxolan-3-yl]oxy}-6-(2-hydroxypropan-2-yl)-2,3-dihydro-1H-isoindol-1-one [Example 46] | 0.76 µM

Same assay, conditions: read-out: SJSA1 IC50 (μM) (Protocol B); SJSA-1, CellTiter-Glo, 72 hrs

Row | IC50 | Substance
13 | 0.26 µM | (3R)-2-[(4-Chloro-2-methanesulfonylphenyl)methyl]-3-(4-chlorophenyl)-6-(1,2-dihydroxypropan-2-yl)-4-fluoro-3-{[1-(hydroxymethyl)cyclopropyl]methoxy}-2,3-dihydro-1H-isoindol-1-one [Example 65]
